Read-outs that look alike come from different tables or passages of the source. Bounds are passed on as bounds.

Sequences of proteins named here, by UniProt entry; tags and fusion partners are left off. Residues count along the entry.
UniProt P28843, 37-760 limits assumed: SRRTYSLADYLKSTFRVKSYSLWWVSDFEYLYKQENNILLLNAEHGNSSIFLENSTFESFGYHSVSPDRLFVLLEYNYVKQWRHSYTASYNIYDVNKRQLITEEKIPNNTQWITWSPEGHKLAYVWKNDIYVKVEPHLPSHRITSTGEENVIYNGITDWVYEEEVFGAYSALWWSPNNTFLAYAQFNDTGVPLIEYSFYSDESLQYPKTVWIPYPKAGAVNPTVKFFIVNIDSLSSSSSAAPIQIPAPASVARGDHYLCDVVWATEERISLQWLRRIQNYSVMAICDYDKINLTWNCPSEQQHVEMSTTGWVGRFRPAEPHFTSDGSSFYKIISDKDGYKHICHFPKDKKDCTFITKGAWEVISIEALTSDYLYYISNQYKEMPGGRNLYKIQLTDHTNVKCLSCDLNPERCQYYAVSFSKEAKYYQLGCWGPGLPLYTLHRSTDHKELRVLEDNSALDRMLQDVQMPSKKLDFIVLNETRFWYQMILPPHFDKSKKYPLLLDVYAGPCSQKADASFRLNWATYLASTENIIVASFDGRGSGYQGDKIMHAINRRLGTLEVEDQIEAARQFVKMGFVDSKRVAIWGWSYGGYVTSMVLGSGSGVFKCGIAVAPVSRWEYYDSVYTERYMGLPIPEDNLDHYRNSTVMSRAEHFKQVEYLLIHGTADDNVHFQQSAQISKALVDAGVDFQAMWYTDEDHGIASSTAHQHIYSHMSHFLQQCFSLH

The target of assay [1] is T1, DPP-IV activity (Mus musculus, UniProt P28843). The conditions noted are these: 10 mg/kg p.o., ob/ob mice.
Assay [2] addresses T1, DPP-IV activity. Description: in vivo. The note with it: po.
The mark [3] stands for this setting: read-out: DPP-IV inhibition at 60 min.
[4] abbreviates: read-out: DPP-IV inhibition at 8 h.

With `N#Cc1ccc(NCCNCC(=O)N2CCC[C@H]2C#N)nc1`, the “DPP-IV activity at 4 h” value in assay [1] was “steady recovery of enzyme activity”. The results for the inhibition at 10 mg/kg in assay [2] (setting [3]) and in assay [2] (read-out: DPP-IV inhibition at 2 h) were at most 80% and 50%, respectively.

Take `N[C@@H](CC(=O)N1CCn2c(nnc2C(F)(F)F)C1)Cc1cc(F)c(F)cc1F` [sitagliptin]: the inhibition at 10 mg/kg in assay [2] (setting [3]) is 90%; in assay [2] (setting [4]), above 70%.

For the compound `N#C[C@@H]1CCCN1C(=O)CNC12CC3CC(CC(O)(C3)C1)C2` [vildagliptin], the inhibition at 10 mg/kg in assay [2] (setting [4]) is above 70%.

As usually defined, the inhibition is the percentage by which the read-out fell short of the control.

These data come from publication PMC2941613 (2010).
